Experimental properties from OPERA 2.9

Source: data files of OPERA 2.9 (Mansouri et al.), github.com/kmansouri/OPERA.

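The numbers are reported measurements, compiled and curated for the OPERA QSAR suite. The files give a single number for a compound and property, which may rest on several reports. How each value was measured is not recorded, so precision varies. The measured form (salt, isomer or mixture) is not always the one drawn. Unmarked limits or estimates from the upstream databases cannot be ruled out.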

The melting point is given in degrees Celsius. The boiling point refers to atmospheric pressure (760 mmHg), by the definition of the set. logP is the log10 of the octanol-water partition coefficient; higher is more lipophilic. Solubility in water is on a log10 molar scale (set defined at 25 °C). Vapor pressure is log10 of mmHg; the set covers 15 to 30 °C, mostly 20 to 25 °C. The unbound fraction in human plasma runs from 0 (all bound) to 1 (all free).

- CC(C)c1ccc(Cl)cc1Br [2-Bromo-4-chloro-1-(1-methylethyl)benzene]: BP 244.2 °C; logP 5.5; water solubility -5.222 (log10 mol/L); log VP -1.394 (log10 mmHg)
- O=C(O[C@@H](C(=O)O)[C@@H](OC(=O)c1ccccc1)C(=O)O)c1ccccc1 [Dibenzoyl-L-tartaric acid]: logP 1.01; water solubility -2.049 (log10 mol/L); log VP -9.703 (log10 mmHg)
- CC(CC(=O)[O-])CC(C)(C)C.[Na+] (stereo unspecified) [Sodium 3,5,5-trimethylhexanoate]: mp 285 °C; logP 0.045; log VP -8.745 (log10 mmHg)
- CCCCC/C(C=O)=C\c1ccc(C)cc1 [(2E)-2-[(4-Methylphenyl)methylene]heptanal]: BP 306.8 °C; logP 5.3; water solubility -4.231 (log10 mol/L); log VP -3.894 (log10 mmHg)
- C=CC(F)(F)C(F)(F)C(F)(F)C(F)(F)C(F)(F)C(F)(F)C=C [1,6-Divinylperfluorohexane]: mp -34.85 °C; water solubility -5.342 (log10 mol/L); log VP 0.937 (log10 mmHg)
- CCCCCCCC[N+](C)(C)C.COS(=O)(=O)[O-] [1-Octanaminium, N,N,N-trimethyl-, methyl sulfate]: mp 68 °C; logP -1.86
- CN1CCN(C(c2ccccc2)c2ccccc2)CC1 [Cyclizine]: logP 3; fu 0.4
- CCCCCCCC/C=C/CCCCCCCC(=O)OCC(CO)(CO)COC(=O)CCCCCCC/C=C/CCCCCCCC: mp -7.5 °C; water solubility -7.124 (log10 mol/L)
- CCNC(=S)OC(C)C [Carbamothioic acid, ethyl-, O-(1-methylethyl) ester]: logP 2.3; water solubility -1.745 (log10 mol/L); log VP 0.973 (log10 mmHg)
- CC(C1CC1)C(O)c1ccc(Cl)cc1 (stereo unspecified) [1-(4-Chlorophenyl)-2-cyclopropyl-1-propanol]: mp 45.8 °C; BP 298 °C; logP 3.8; water solubility -3.244 (log10 mol/L); log VP -3.31 (log10 mmHg)
- COCCCN1C(=O)c2ccc3c(=O)n4c5ccc(C)cc5nc4c4ccc(c2c34)C1=O: mp 179.4 °C; logP 4.7; water solubility -6.772 (log10 mol/L)
- CNC(C)C [N-Methylisopropylamine]: mp -78.12 °C; logP 0.52; log VP 2.45 (log10 mmHg)
- Cc1ccccc1OCC1CO1 (stereo unspecified) [o-Cresyl glycidyl ether]: logP 2.5; water solubility -2.253 (log10 mol/L); log VP -2.312 (log10 mmHg)
- N#CCCN(CCOC(=O)c1ccccc1)c1ccc(N=Nc2ccc([N+](=O)[O-])cc2)cc1 [C.I. Disperse Orange 73]: mp 150.8 °C; logP 4.8; water solubility -7.17 (log10 mol/L); log VP -5.862 (log10 mmHg)
- CCCOCc1ccc(CC(C)C)cc1 [4-(2-Methylpropyl)benzyl propyl ether]: logP 5.5; water solubility -4.783 (log10 mol/L); log VP -1.935 (log10 mmHg)
- COc1ccc2[nH]c(=S)[nH]c2c1 [5-Methoxy-2-mercaptobenzimidazole]: logP 1.172; water solubility -2.751 (log10 mol/L)
- C=COC(=O)C(CC)CCCC (stereo unspecified) [Ethenyl 2-ethylhexanoate]: BP 188.9 °C; log VP -0.147 (log10 mmHg)
- FC(F)C(F)(F)C(F)(F)C(F)(F)C(F)(F)C(F)(F)F [1H-Perfluorohexane]: water solubility -5.329 (log10 mol/L); log VP 2.099 (log10 mmHg)
- CCC(CC)C1CC(C)(O)CCO1 (stereo unspecified) [2H-Pyran-4-ol, 2-(1-ethylpropyl)tetrahydro-4-methyl-]: mp -62.1 °C; BP 244.2 °C; logP 2.19; water solubility -1.916 (log10 mol/L)
- CCCCCC(=Cc1ccccc1)C(OCC)OCC [2-Diethoxymethyl-1-phenylhept-1-ene]: water solubility -5.172 (log10 mol/L); log VP -4.134 (log10 mmHg)
- O=c1n(CCCS)c(=O)n(CCCS)c(=O)n1CCCS [1,3,5-Tris(3-sulfanylpropyl)-1,3,5-triazinane-2,4,6-trione]: BP 360 °C; water solubility -3.768 (log10 mol/L)
- CCN(CC)c1ccc(N=Nc2c(Cl)cc([N+](=O)[O-])cc2[N+](=O)[O-])c(NC(C)=O)c1: mp 172 °C; logP 5.8; water solubility -7.116 (log10 mol/L)
- CC1(C)C(=O)N(CO)C(=O)N1CO [1,3-Dimethylol-5,5-dimethylhydantoin]: mp 90 °C; logP -2.9; log VP -7.046 (log10 mmHg)
- O=C(Nc1ccc2c(O)c(N=Nc3ccc(N=Nc4ccc(S(=O)(=O)[O-])cc4)cc3)c(S(=O)(=O)[O-])cc2c1)c1ccccc1.[Na+].[Na+] [C.I. Direct Red 81 disodium salt]: logP -2.05; water solubility -2.157 (log10 mol/L)
- CCOC(=O)C(Cc1cc(I)c(Oc2ccc(OC)cc2)c(I)c1)NC(C)=O (stereo unspecified) [Ethyl N-acetyl-3,5-diiodo-O-(4-methoxyphenyl)tyrosinate]: mp 130 °C; logP 3.6; water solubility -6.151 (log10 mol/L)
- CCCC(=O)OCc1ccccc1 [Benzyl butyrate]: mp -14.3 °C; log VP -1.312 (log10 mmHg)
- COc1ccc(NC(=O)[C@@H]2C[C@H](C)CC[C@H]2C(C)C)cc1: mp 178.4 °C; logP 3.95; water solubility -5.821 (log10 mol/L); log VP -10.23 (log10 mmHg)